{"source": "patent US12570697B2", "about": "“Cyclic peptide useful in the treatment of cancer” (Syntherix Limited, priority 2019, dated 2026)", "system": "NCI-H460 cells", "experiment": "viability assay of CLIP cyclised peptides on NCI-H460 cells (Example 3, Table 2)", "details": "with and without Nanocin-PRO"}
{"substance": "Ac-C[Dac]R[Sar][dmPro]R[Nap]C-NH2 [HILRa-CL-15]", "values": [{"measurement": "cytotoxic activity against NCIH460 cells (in words)", "result": "showed activity"}]}
